Biological target: Nociceptin receptor (Homo sapiens) (UniProt P41146)
Experiment: Percent NC (nociceptin) response was measured by cellular decreases in forskolin stimulated cAMP in CHO cells stably transfected with hORL1 receptor

Protein sequences, listed by entry. Tags and fused reporters are not part of them. Lines headed by an entry give the natural chain unless they say otherwise; changes in a name come on top.
UniProt P41146: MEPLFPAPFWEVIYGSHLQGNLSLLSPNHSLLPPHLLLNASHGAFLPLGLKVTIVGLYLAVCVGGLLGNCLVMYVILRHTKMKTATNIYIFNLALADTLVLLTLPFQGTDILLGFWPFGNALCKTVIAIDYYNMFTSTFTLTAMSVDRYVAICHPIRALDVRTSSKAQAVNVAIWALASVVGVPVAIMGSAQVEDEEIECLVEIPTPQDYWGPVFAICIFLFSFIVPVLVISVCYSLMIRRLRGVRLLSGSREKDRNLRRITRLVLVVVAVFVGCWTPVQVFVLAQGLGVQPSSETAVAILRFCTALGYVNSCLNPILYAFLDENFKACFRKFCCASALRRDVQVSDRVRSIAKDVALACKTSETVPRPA

SMILES | Response [%]
Cc1ccc(Cl)c(OC(CCN2CCC(n3c(O)nc4ccccc43)CC2)c2ccccc2)c1 (stereo not given) | 81
CC(C)C(CCN1CCC(n2c(O)nc3ccccc32)CC1)Oc1ccccc1C(F)(F)F (stereo not given) | 79
CC(C)C(CCN1CCC(n2c(O)nc3ccccc32)CC1)Oc1cc(F)ccc1Cl (stereo not given) | 51
Cc1ccc(Cl)c(OC(c2ccccc2)C(O)CN2CCC(n3c(O)nc4ccccc43)CC2)c1 (stereo not given) | 93
CCCC(Oc1cc(C)ccc1Cl)C(O)CN1CCC(n2c(O)nc3ccccc32)CC1 (stereo not given) | 97
Cc1cc(F)ccc1OC(CCN1CCC(n2c(O)nc3ccccc32)CC1)C(C)C (stereo not given) | 67
Cc1ccc(Cl)c(OC(CCN2CCC(n3c(O)nc4ccccc43)CC2)C(C)C)c1 (stereo not given) | 101
Cc1ccc(Cl)c(OC2(C(O)CN3CCC(n4c(O)nc5ccccc54)CC3)CCCCC2)c1 (stereo not given) | 82
Cc1ccc(F)c(OC(CCN2CCC(n3c(O)nc4ccccc43)CC2)C(C)C)c1 (stereo not given) | 70
Cc1ccc([N+](=O)[O-])c(OC(CCN2CCC(n3c(O)nc4ccccc43)CC2)C(C)C)c1 (stereo not given) | 58
COc1ccc(Cl)c(OC(CCN2CCC(n3c(O)nc4ccccc43)CC2)C(C)C)c1 (stereo not given) | 101
Cc1ccc(C)c(OC(CCN2CCC(n3c(O)nc4ccccc43)CC2)C(C)C)c1 (stereo not given) | 89
Cc1ccc(Cl)c(OC(CC(C)C)C(O)CN2CCC(n3c(O)nc4ccccc43)CC2)c1 (stereo not given) | 88
Cc1cc(OC(CCN2CCC(n3c(O)nc4ccccc43)CC2)C(C)C)ccc1F (stereo not given) | 78
Cc1ccc(N)cc1OC(CCN1CCC(n2c(O)nc3ccccc32)CC1)C(C)C (stereo not given) | 104

Reference: ChEMBL document CHEMBL1144273, “Synthesis and SAR studies of 3-phenoxypropyl piperidine analogues as ORL1 (NOP) receptor agonists” (Bioorg Med Chem Lett, 2005)
